PKM2 activator: activators of human pyruvate kinase M2. P14618. 260,000 tested, 0.34% active. purified PKM2, Kinase-Glo ATP luminescence, activation; response scale: 0% is enzyme alone, no compound. Potency, µM (highest dose often 57.5 µM), without a hit: at the highest dose activation, usual class: activators; note: potency is the fitted concentration of half-maximal effect; % is set by controls: 0 for no effect and ±100 for the full control effect; nearly all actives have a fitted effect of over 55% in size
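ATP formation by purified human PK-M2, quantified via coupled luciferase luminescence after 1 h at room temperature with 0.1 mM ADP and 0.5 mM PEP final.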
Chronic BCR inh: blocks chronic active B-cell receptor signaling; ABC-DLBCL IkBa-CBG/CBR reporter, luminescence ratio, 4 h; Potency, µM (titrated, usually from 46.1 µM), for the others: top-dose activity change, negative = inhibition, most hits filed as inhibitors; 340,000 tested, 0.05% active; AID 493014; active = well fitted inhibition curve with a large enough effect in the signal ratio, with a control signal flat, not every such curve was filed as active; inconclusive = small, poorly fitted or top-dose-only effect, or effect the other way, or a change in a side signal; the % refers to the signal ratio;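 note: potency is the fitted concentration of half-maximal effect; plate controls were basal doxycycline-induced cells for no effect and cells given 10 µM MG132 for full effect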
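TMD8 human ABC-DLBCL cells with doxycycline-inducible IκBα–green luciferase fusion and unfused red luciferase, in 0.5% FBS medium; compounds up to 46 uM, 4 h at 37C. Green/red luminescence ratio, filter-overlap corrected, fitted to concentration-response curves.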
miR-21 reporter: miR-21 reporter, rising signal | HeLa miR-21 FLuc reporter, luciferase, 48 h | Potency, µM (doses to about 38.3 µM), inactives show at the top dose reporter change, positive = more light | 340,000 tested, under 10 active | AID 2288; active = well fitted rising curve with a large enough effect; inconclusive = small, poorly fitted or top-dose-only effect; inactive = no such curve, though single readings can be large or run the other way;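 note: % of control where 0% means no effect; miR-21 action dims this reporter so a rising signal means less miR-21 action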
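Using DMEM plus 10% FBS, HeLa miR-21-FLuc cells are incubated with test compounds (final up to about 40uM) for 48 hours; firefly luciferase signal is then imaged following reagent-mediated lysis.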
PINK1 expr mod: changes PINK1 expression | 410,000 tested, 0.2% active | Potency, µM (doses to about 76.6 µM), without a hit: at the top dose activation (PINK1 increase), most hits filed as activators | PINK1 immunofluorescence, high-content cytometry, 24 h; active = well fitted activation curve with a large enough effect; inconclusive = small, poorly fitted or top-dose-only effect; cell line not stated here; note: potency is the fitted concentration of half-maximal effect; % of control where 0% means no effect; nearly all actives have a fitted effect of over 65% in size
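PINK1 protein level read as immunofluorescence by microplate cytometer in a fixed, stained stable cell line after 24 h exposure to five compound concentrations, with CCCP as control.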
Pin1 inhibitor: human Pin1 inhibition | Q13526 | Pin1 FP peptide displacement, HiFluor488, 10 min | Potency, µM (titrated, usually from 115 µM), for inactives: at the top dose activity, negative = inhibition, actives largely listed as inhibitors | 390,000 tested, 0.009% active | AID 504891; active = well fitted inhibition curve with a large enough effect in the polarisation, with a control signal flat, not every such curve was filed as active; inconclusive = small, poorly fitted or top-dose-only effect, or effect the other way, or a change in a side signal; inactive = no such curve, though single readings can be large or run the other way; the % refers to the polarisation; note: potency is the fitted concentration of half-maximal effect; % is set by controls: 0 for no effect and ±100 for the full control effect
B2AR arrestin: recruits beta-arrestin to the human beta2-adrenergic receptor; P07550; beta-arrestin recruitment to beta2AR, cell-based reporter; Potency, µM (series often up to 46.1 µM), for the others: at the top dose activation, actives largely listed as activators; AID 492947; 330,000 tested, 0.02% active;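 note: potency is the fitted concentration of half-maximal effect; 0% = DMSO controls and full agonism = EC100 isoproterenol or metaproterenol; nearly all actives have a fitted effect of over 65% in size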
The depositor's hits bear a star; ? = inconclusive; . = not tested or not shown; [ ] = dose if it differs, or a comment. This is a sample that favours compounds with a hit; in the whole collection about 0.46% have one here. Unless noted, calls come from the whole dose curve; as a rule, active = well fitted curve in the direction sought with a large enough effect; inconclusive = small, poorly fitted or top-dose-only effect, or another doubt; inactive = no such curve, though single readings can be large; an effect the other way counts as inactive or inconclusive.

| item | canonical_smiles | B2AR arrestin | Chronic BCR inh | PINK1 expr mod | PKM2 activator | miR-21 reporter | Pin1 inhibitor |
| --- | --- | --- | --- | --- | --- | --- | --- |
| 1 | COc1cc(C(=O)Oc2c(CN3CCOCC3)cc(Cl)c3cccnc23)cc(OC)c1OC | 3.55µM* | -1.8% | 6.1% | 14.6% | ? | -6.8% |
| 2 | O=C(Oc1c(CN2CCOCC2)cc(Cl)c2cccnc12)c1ccccc1Cl | 3.55µM* | ? | 1.5% | -3.2% | ? | 2.9% |
| 3 | COc1ccc(C(=O)Oc2c(CN3CCOCC3)cc(Cl)c3cccnc23)cc1 | ? | ? | 1.0% | ? | ? | -5.9% |
| 4 | O=C(Oc1c(CN2CCOCC2)cc(Cl)c2cccnc12)c1cccs1 | 8.7% | ? | 0.7% | -9.1% | ? | 1.1% |
| 5 | CCc1ccc(NC(=O)Nc2ccc3c(c2)N(C)C(=O)CS3)cc1 | 0.1% | ? | 17.8µM* | 3.0% | 26.5% | 14.9% |
| 6 | Oc1ccc(-c2nc3cnccn3c2Nc2ccc3c(c2)OCCO3)cc1 | 0.1% | 17.8µM* | 4.3% | 9.1% | -37.4% | ? |
| 7 | CCC(=O)NCc1nc(-c2cccc(NC(=O)c3ccc(C)s3)c2)oc1C | . | . | 0.9% | . | . | . |
| 8 | CNC(=S)N/N=C1\C(=O)c2cccc3cccc1c23 | 3.55µM* | ? | 8.5% | -11.5% | -4.8% | ? |
| 9 | Cc1c(C(=O)OCC2CCCO2)[nH]c2c1C(=O)CC(c1ccco1)C2 (configuration not stated) | 0.3% | ? | 3.1% | 20µM* | 22.8% | ? |
| 10 | Cc1c(C(=O)OCC(C)C)[nH]c2c1C(=O)CC(c1ccco1)C2 (configuration not stated) | 0.2% | ? | 5.9% | ? | 13.1% | 29.3% |
| 11 | Cc1occc1C(=O)Nc1cccc(-c2nc(CNC(=O)c3cccc(C#CC(C)(C)O)c3)c(C)o2)c1 | . | . | 2.6% | . | . | . |
| 12 | Cc1cccc(NC(=O)Cc2coc3ccc4ccccc4c23)n1 | -0.7% | ? | 11.2µM* | -10.7% | 16.4% | -1.0% |
| 13 | COc1cccc(/C=N/NC(=O)c2cc3c(OC)cccc3[nH]2)c1O | -0.7% | ? | 39.8µM* | ? | 22.0% | 38.3% |
| 14 | CN(c1ccccc1)c1ccc(/C=N/NC(=O)CC#N)cc1 | 1.3µM* | ? | 2.9% | 2.9% | 1.0% | ? |
| 15 | CCn1cc(C(=O)NCC(=O)OC)c2cc(OC)c(OC)cc2c1=O | -0.8% | 1.0% | -3.8% | -3.2% | -14.1% | 0.2% |
| 16 | CCn1cc(C(=O)NCc2ccc(C)o2)c2cc(OC)c(OC)cc2c1=O | -0.1% | 1.7% | 0.3% | 14.1µM* | -3.2% | 8.2% |
| 17 | Cc1ccc(CNC(=O)c2coc(=O)c3ccccc23)o1 | -0.4% | -22.7% | 2.1% | 12.6µM* | 6.2% | -1.6% |
| 18 | Cc1c(N=C2N=C(NC(=O)c3ccc(F)cc3)c3ccccc32)c(=O)n(-c2ccccc2)n1C | 0.0% | ? | 39.8µM* | -9.9% | -16.7% | ? |
| 19 | Cc1occc1-c1nnc(SCC(=O)Nc2nc(-c3ccccc3)cs2)o1 | 0.5% | ? | 10µM* | 11.3% | -36.0% | 2.0% |
| 20 | O=c1cc(CSc2nnnn2-c2ccccc2)nc2scc(-c3ccccc3)n12 | -0.3% | ? | -2.2% | 25.1µM* | -5.5% | 22.5% |
| 21 | CS(=O)(=O)c1ccc(-c2cccc3c2OC(CNC(=O)c2ccnc(Cl)c2)C3)cc1 (configuration not stated) | . | . | -1.0% | . | . | . |
| 22 | Cc1ccc(N=Cc2cccc(O)c2O)c(C)c1 | 4.0% | 2.8% | 0.5% | 12.6µM* | 1.1% | . |
| 23 | Cc1ccccc1N=Cc1cccc(O)c1O | 3.0% | ? | 0.5% | 17.4% | -0.5% | -19.8% |
| 24 | CC(/C=C1\SC(=S)N(CCC(=O)Nc2nc(C)cs2)C1=O)=C\c1ccccc1 | -0.7% | -0.4% | 39.8µM* | 4.5% | -1.3% | ? |
| 25 | CC(/C=C1\SC(=S)N(CCCC(=O)Nc2ccc(C(=O)O)c(O)c2)C1=O)=C\c1ccccc1 | . | ? | 0.4% | -11.8% | -48.0% | 53.6µM* |
| 26 | Cc1ccc(NS(=O)(=O)c2cc3c(cc2-c2ccccc2)NC(=O)CO3)cc1C | . | . | . | . | . | 22.8% |
| 27 | COc1ccc(Cn2c(=O)c3[nH]cnc3n(-c3ccccc3C)c2=O)cc1 | -0.7% | 15.8µM* | 5.6% | -1.5% | 10.6% | -3.9% |
| 28 | COc1ccc(C)c(-n2c(=O)n(Cc3ccccc3)c(=O)c3[nH]cnc32)c1 | -0.6% | ? | -0.9% | 2.3% | -12.0% | -0.3% |
| 29 | Cc1onc(-c2ccccc2)c1C(=O)Nc1nnc(C(C)C)s1 | 0.0% | -5.2% | -0.7% | 1.0% | 2.6% | -6.4% |
| 30 | Cc1onc(-c2ccccc2)c1C(=O)Nc1ncc([N+](=O)[O-])s1 | -0.2% | ? | 12.6µM* | . | ? | 13.1% |

One compound at a time, from the list above. Values in the order: B2AR arrestin | Chronic BCR inh | PINK1 expr mod | PKM2 activator | miR-21 reporter | Pin1 inhibitor
Cc1ccc(NS(=O)(=O)c2cc3c(cc2-c2ccccc2)NC(=O)CO3)cc1C across the screens: . | . | . | . | . | 22.8%
CNC(=S)N/N=C1\C(=O)c2cccc3cccc1c23 across the screens: 3.55µM* | ? | 8.5% | -11.5% | -4.8% | ?
CCn1cc(C(=O)NCC(=O)OC)c2cc(OC)c(OC)cc2c1=O across the screens: -0.8% | 1.0% | -3.8% | -3.2% | -14.1% | 0.2%
CS(=O)(=O)c1ccc(-c2cccc3c2OC(CNC(=O)c2ccnc(Cl)c2)C3)cc1 (configuration not stated) across the screens: . | . | -1.0% | . | . | .

(continued)
| item | canonical_smiles | B2AR arrestin | Chronic BCR inh | PINK1 expr mod | PKM2 activator | miR-21 reporter | Pin1 inhibitor |
| --- | --- | --- | --- | --- | --- | --- | --- |
| 31 | Cc1ccc(C(=O)Nc2ncc([N+](=O)[O-])s2)cc1 | -0.6% | ? | 35.5µM* | -35.5% | ? | 14.7% |
| 32 | COc1ccccc1Nc1nnc(SCC(=O)NC(=O)Nc2ccc3c(c2)OCCO3)s1 | -0.5% | ? | 11.2µM* | -3.8% | -21.5% | 22.8% |
| 33 | Cc1ccccc1Nc1nnc(SCC(=O)NC(=O)Nc2ccc3c(c2)OCCO3)s1 | 4.7% | -5.6% | . | 4.2% | -61.6% | . |
| 34 | COc1cnn(-c2ccccc2)c(=O)c1N(C)C | -0.3% | 8.6% | 12.6µM* | 5.6% | -13.1% | -3.5% |
| 35 | CC(=O)Nc1cc(C(=O)N2CC3(C)CC2CC(C)(C)C3)cc2ncn(CCc3ccccn3)c12 (configuration not stated) | . | . | -0.3% | . | . | . |
| 36 | CO[C@H]1[C@H](NC(=O)c2ccco2)c2ccccc2C12CCN(Cc1cc(Cl)ccc1O)CC2 | . | . | 0.3% | . | . | . |
| 37 | CN1C=CC2=C(C#N)C(N)C(C#N)(C#N)[C@H](c3ccccc3)[C@H]2C1 (some centres not stated) | 0.0% | 6.7% | 12.6µM* | -1.4% | 1.8% | ? |
| 38 | O=S1(=O)N=C(Oc2ccccc2Cl)c2ccccc21 | . | . | . | . | . | -5.0%[163 µM] |
| 39 | O=[N+]([O-])c1cc(S(=O)(=O)Nc2cccc(C(F)(F)F)c2)ccc1-n1nnc2ccccc21 | 0.4% | ? | 22.4µM* | 0.2% | 11.7% | -16.2% |
| 40 | CCOc1c2c(c(-c3ccc4c(c3)OCO4)c3cc(OC)c(OC)cc13)C(=O)OC2 | . | . | 14.1µM* | . | . | -3.1% |
| 41 | Cc1ccccc1-c1ccc(CN2CCc3nnc(C(NS(C)(=O)=O)C(C)C)n3CC2)cc1 (configuration not stated) | . | . | 2.2% | . | . | . |
| 42 | CN1CC=C2C(C#N)=C(N)C(C#N)(C#N)[C@H](c3cccs3)[C@H]2C1 | -0.1% | 0.3% | ? | -3.7% | -7.7% | ? |
| 43 | COc1cc([C@@H]2[C@H]3CN(C)CC=C3C(C#N)=C(N)C2(C#N)C#N)cc2c1OCO2 | -0.4% | 5.1% | 17.8µM* | -1.9% | -7.2% | ? |
| 44 | CN1CC=C2C(C#N)=C(N)C(C#N)(C#N)C(c3ccsc3)C2C1 (configuration not stated) | -0.3% | -1.6% | 10µM* | 2.4% | -7.3% | ? |

Source: PubChem BioAssay (National Center for Advancing Translational Sciences (NCATS))
